Experimental data taken from patent US20220249564A1, “PDL1 POSITIVE NK CELL CANCER TREATMENT” (City of Hope, priority 2019, published 2022).

System: PD-L1-KO K562 myeloid leukemia cells
Assay: NSG mouse model with human primary NK cells and PD-L1-KO K562 cells
Type: in vivo, NSG mice
Conditions: every other day for two weeks; FIG. 5D
Source text: FIGS. 5A-5D present data showing the effects of the anti-PD-L1 mAb AZ and/or NK-activating cytokines on anti-tumor efficacy in vivo. […] After 6 days, mice were sacrificed and NK cells were isolated and assessed for PD-L1 expression by flow cytometry. Representative figures and summary data are shown (n=5). […] PBS instead of IgG1 was used as placebo because AZ lacks antibody-dependent cellular cytotoxicity activity. After 6 days (three treatments), mice were sacrificed and human NK cells were examined for their expression of granzyme B, CD107α, and IFN-γ, while the number of PD-L1-knockout K562 myeloid leukemia cells (as shown in FIG. 5C) was enumerated by flow cytometry. Representative figures and summary data (n=5) are shown. […] Two paired groups were compared by paired t-test. One-way ANOVA with repeated measures or linear mixed model was used to compare three (3) or more donor-matched groups. P values were adjusted by the Holm-Sidak method. Kaplan-Meier method was used to estimate survival functions and log-rank test was applied to group comparisons.
8-week old NSG mice were intravenously (i.v.) injected with PD-L1 knockout K562 myeloid leukemia cells at a concentration of 2 million cells per mouse. […]

For IL-2: NK cell-activating cytokine, the survival was “neither the in vivo administration of IL-2 alone had much effect on survival”.
